Values quoted from earlier work as cited in PubChem BioAssay AID977610.

Biological target: Enteroccocus faecalis thymidylate synthase (EfTS)
Experiment: PubChem AID 977610
Settings: PDB protein-ligand complexes, literature Ki; protein: Enteroccocus faecalis thymidylate synthase (EfTS); PDB entry 3UWL

Nc1nc2c(c(=O)[nH]1)N(C=O)[C@@H](CNc1ccc(C(=O)N[C@@H](CCC(=O)O)C(=O)O)cc1)CN2
Ki: 208 µM
